The target of one series is Human plasma kallikrein (Homo sapiens (Human), UniProt P03952). The series can be described thus: Determination of the IC50 for plasma kallikrein. It is filed as biochemical. As to conditions: read-out: IC50 (human PKal); 25° C., substrate H-DPro-Phe-Arg-AFC.
For another series, the target named is Human KLK1 (Homo sapiens (Human), UniProt P06870). The series can be described thus: Determination of the IC50 for KLK1. Type of series: biochemical. As to conditions: read-out: IC50 (human KLK1); 25° C., substrate H-DVal-Leu-Arg-AFC.
For another series, the target named is Human FXIa (Homo sapiens (Human), UniProt P03951). The series can be described thus: Determination of the % inhibition / IC50 for FXIa. It is filed as biochemical. As to conditions: read-out: IC50 (human FXIa); 25° C., substrate Z-Gly-Pro-Arg-AFC. As for the experimental part: FXIa inhibitory activity in vitro was determined using standard published methods (see e.g. Johansen et al., Int. J. Tiss. Reac. 1986, 8, 185; Shori et al., Biochem. Pharmacol., 1992, 43, 1209; Sturzebecher et al., Biol. Chem. Hoppe-Seyler, 1992, 373, 1025). […]

By UniProt entry, the sequences of proteins in these tests, tags left out. Residues count along the entry.
UniProt P03952, 20-390 limits assumed: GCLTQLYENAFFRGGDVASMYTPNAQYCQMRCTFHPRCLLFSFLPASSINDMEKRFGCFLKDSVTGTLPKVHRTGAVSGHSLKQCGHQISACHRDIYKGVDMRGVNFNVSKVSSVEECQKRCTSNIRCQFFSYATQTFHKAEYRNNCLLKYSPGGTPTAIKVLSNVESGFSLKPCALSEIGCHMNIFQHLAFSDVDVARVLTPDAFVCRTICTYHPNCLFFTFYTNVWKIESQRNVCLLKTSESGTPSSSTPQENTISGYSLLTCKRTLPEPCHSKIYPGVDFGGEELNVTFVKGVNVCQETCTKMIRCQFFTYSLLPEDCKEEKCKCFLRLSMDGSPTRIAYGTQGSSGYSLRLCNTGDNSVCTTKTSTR
UniProt P03952, 391-638 limits assumed: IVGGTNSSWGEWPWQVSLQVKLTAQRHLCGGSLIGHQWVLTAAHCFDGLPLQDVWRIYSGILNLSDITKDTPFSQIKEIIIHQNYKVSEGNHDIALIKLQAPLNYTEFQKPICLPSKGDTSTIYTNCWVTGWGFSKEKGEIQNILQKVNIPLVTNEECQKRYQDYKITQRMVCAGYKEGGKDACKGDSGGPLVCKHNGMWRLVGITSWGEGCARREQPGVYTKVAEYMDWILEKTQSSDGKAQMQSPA
UniProt P06870, 25-262 limits assumed: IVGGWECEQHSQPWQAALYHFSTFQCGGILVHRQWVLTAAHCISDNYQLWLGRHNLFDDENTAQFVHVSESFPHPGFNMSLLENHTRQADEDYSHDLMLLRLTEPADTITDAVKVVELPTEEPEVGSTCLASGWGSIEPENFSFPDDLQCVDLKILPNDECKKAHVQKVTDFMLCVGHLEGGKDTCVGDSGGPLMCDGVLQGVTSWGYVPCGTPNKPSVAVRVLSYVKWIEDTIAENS
UniProt P03951, 19-387 limits assumed: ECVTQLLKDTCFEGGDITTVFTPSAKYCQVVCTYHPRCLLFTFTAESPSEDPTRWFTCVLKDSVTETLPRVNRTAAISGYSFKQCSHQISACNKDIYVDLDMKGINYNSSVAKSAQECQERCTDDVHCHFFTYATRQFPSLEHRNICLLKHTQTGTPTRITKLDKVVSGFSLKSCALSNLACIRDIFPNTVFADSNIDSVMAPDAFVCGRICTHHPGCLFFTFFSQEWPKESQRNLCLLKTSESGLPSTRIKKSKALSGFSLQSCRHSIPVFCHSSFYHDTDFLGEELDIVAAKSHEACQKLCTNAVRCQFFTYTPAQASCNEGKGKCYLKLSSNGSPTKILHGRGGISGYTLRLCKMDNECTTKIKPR
UniProt P03951, 388-625 limits assumed: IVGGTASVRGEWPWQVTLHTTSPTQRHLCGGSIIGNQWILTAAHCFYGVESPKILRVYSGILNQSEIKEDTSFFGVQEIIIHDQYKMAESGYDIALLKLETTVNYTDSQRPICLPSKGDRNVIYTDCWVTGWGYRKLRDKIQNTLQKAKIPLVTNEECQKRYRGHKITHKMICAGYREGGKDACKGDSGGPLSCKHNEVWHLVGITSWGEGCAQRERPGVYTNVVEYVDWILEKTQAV
UniProt P00748, 373-615 limits assumed: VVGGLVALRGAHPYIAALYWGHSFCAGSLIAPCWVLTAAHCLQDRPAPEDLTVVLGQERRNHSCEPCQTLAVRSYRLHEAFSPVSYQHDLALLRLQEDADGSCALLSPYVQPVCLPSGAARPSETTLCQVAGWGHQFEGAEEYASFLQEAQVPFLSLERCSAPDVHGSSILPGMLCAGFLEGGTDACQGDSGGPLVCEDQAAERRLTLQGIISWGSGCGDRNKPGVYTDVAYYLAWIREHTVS

The next series concerns the target Human Factor XIIa (Homo sapiens (Human), UniProt P00748). The series can be described thus: Factor XIIa inhibitory activity in vitro. As to conditions: read-out: IC50 (human FXIIa); 25° C., substrate H-DPro-Phe-Arg-AFC.
A further series has as its system Caco-2 monolayers. The series can be described thus: In vitro permeability, Caco-2 model for oral absorption. It is filed as in vitro ADME. The note with it: apical to basolateral, 50 μM test compound, 1 hour, 37° C. As for the experimental part: In vitro permeability was determined using the Caco-2 model for oral absorption. The methodology was adapted from standard published methods (Wang Z, Hop C. E., Leung K. H. and Pang J. (2000) J Mass Spectrom 35(1); 71-76). The Caco-2 monolayers were established in a Biocoat™ HTS fibrillar collagen 24 well multiwell insert system (1.0 μm, PET membrane, Corning 354803) in which 200,000 cells were seeded into each insert and maintained over 3 days before being utilised in the permeability assay. For the assay, 50 μM test compound is added to the apical side of the inserts and incubated for 1 hour at 37° C. on a shaking platform (120 rpm). Apical to basolateral transport was determined by measuring the test article in both compartments by LCMS following the 1 hour incubation. The integrity of the Caco-2 monolayers was confirmed by two methods, (i) comparison of pre- and post-experiment transepithelial electrical resistance (TEER) and, (ii) assessment of Lucifer Yellow flux.
In general terms: Passage across Caco-2 layers is used to estimate intestinal permeability.

The nature of series [1]: Intrinsic clearance in human liver microsomes. Type of series: in vitro ADME. As to conditions: human liver microsomes 0.5 mg/mL, 5 μM test compound, 37° C. In general terms: Liver microsomes are a subcellular fraction often used to study metabolism.
The nature of series [2]: Intrinsic clearance in rat liver microsomes. The note with it: rat liver microsomes 0.5 mg/mL, 5 μM test compound, 37° C.

As usually defined, the IC50 is the concentration at which inhibition is half-maximal.

`O=C(NCc1cccc(Cl)c1)c1cnn(Cc2ccc(Cn3cccn3)cc2)c1`: the IC50 was 2030 nM at Human plasma kallikrein, > 40 µM at Human KLK1, > 40 µM at Human FXIa and > 40 µM on Human Factor XIIa. Besides, in the series on Caco-2 monolayers, the “Caco-2 (Papp ×10^−6 cm/s)” value is 8 ×10^−6 cm/s. The “Human liver microsome (Clint μL/min/mg protein)” value in series [1] is listed as 58 μL/min/mg protein. Also, the “rat liver microsome (Clint μL/min/mg protein)” value in series [2] is reported as 62 μL/min/mg protein.

For `O=C(NCc1cccc(Cl)c1F)c1cnn(Cc2ccc(Cn3cccn3)cc2)c1`, the IC50 is 731 nM at Human plasma kallikrein, > 40 µM at Human KLK1, > 40 µM at Human FXIa and > 40 µM on Human Factor XIIa. Further, in the series with Caco-2 monolayers, the “Caco-2 (Papp ×10^−6 cm/s)” value is 7 ×10^−6 cm/s. Besides, in series [1], the “Human liver microsome (Clint μL/min/mg protein)” value stood at 71 μL/min/mg protein. For the same compound, the “rat liver microsome (Clint μL/min/mg protein)” value in series [2] turned out to be 72 μL/min/mg protein.

The record behind these values is patent US11180484B2, “Pyrazole derivatives as plasma kallikrein inhibitors” (KALVISTA PHARMACEUTICALS LIMITED, priority 2016, dated 2021).
